Assay results taken from PubChem BioAssay AID1700 (The Scripps Research Institute Molecular Screening Center, 2009).
The entries are a selection whose mix differs from that of the whole data set. Active and inactive are the calls of the source.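 How the source made its calls: active means inhibition above a per-plate limit of that plate's mean compound inhibition plus 3 SD (cut at about 60% in these data); inactive means the rest.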

assay: KLF5 expression inhibitors, primary screen, DLD-1 cells, luminescence (AID 1700); details: DLD-1 KLF5 promoter-luciferase reporter, at 5 µM, hits give high values;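 further: 0% = DMSO wells and 100% = LY294002 at 200 µM; higher means less KLF5 promoter-driven luciferase light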

SMILES	inhibition
CCN(CC)CCCOC(=O)C(O)(c1ccccc1)c1ccccc1	inactive: -20.6%
O=[N+]([O-])c1ccc2c(c1)C=Nc1ccccc1O2	inactive: 1.4%
Cc1cccc(C)c1OP(C)(N)=O (stereo unspecified)	inactive: -26.9%
CC(C)(C)c1ccc(OP(C)(=O)Nc2ccc(SC(F)(F)F)cc2)cc1 (stereo unspecified)	inactive: -5.65%
Cc1cc(C)cc(OP(C)(N)=O)c1 (stereo unspecified)	inactive: -36%
COc1ccc(OP(C)(=O)Nc2cccc(F)c2)cc1 (stereo unspecified)	inactive: -27.8%
COc1ccccc1OP(C)(=O)Nc1cc(Cl)ccc1C (stereo unspecified)	inactive: 1.88%
Cc1ccc(NP(C)(=O)Oc2ccccc2)c(C)c1 (stereo unspecified)	inactive: 3.53%
COc1ccccc1OP(C)(=O)Nc1ccc(C)cc1 (stereo unspecified)	inactive: 2.72%
CCOC(=O)c1ccc(NP(C)(=O)Oc2ccccc2)cc1 (stereo unspecified)	inactive: -12.3%
CP(=O)(Nc1ccccc1Br)Oc1ccccc1 (stereo unspecified)	inactive: -18.7%
COc1ccccc1OP(C)(=O)Nc1ccccc1 (stereo unspecified)	inactive: -1.7%
CP(=S)(Nn1cnnc1)Oc1ccccc1 (stereo unspecified)	inactive: 3.82%
Cc1cc(C)cc(OP(C)(=O)Nc2ccc(SC(F)(F)F)cc2)c1 (stereo unspecified)	inactive: -4.09%
CCc1ccc(OP(C)(=O)N2CCN(c3ccc([N+](=O)[O-])cc3)CC2)cc1 (stereo unspecified)	inactive: -1.78%
CP(=O)(NC(=O)Nc1ccccc1)Oc1ccccc1 (stereo unspecified)	inactive: -0.07%
CP(=O)(Oc1ccccc1)OC(c1ccccc1)C(F)(F)F (stereo unspecified)	inactive: 0.21%
CP(=O)(Nc1ccc(SC(F)(F)F)cc1)Oc1ccc(Cl)cc1 (stereo unspecified)	inactive: -9.44%
Cc1cccc(C)c1OP(C)(=O)Nc1ccc(SC(F)(F)F)cc1 (stereo unspecified)	inactive: -5.58%
CP(=O)(Nc1ccccn1)Oc1ccc(Cl)cc1 (stereo unspecified)	inactive: -1.79%
CCOC(=O)c1ccc(NP(C)(=O)Oc2ccc(OC)cc2)cc1 (stereo unspecified)	inactive: -14.6%

SMILES	inhibition
CCOP(C)(=S)SCC(=O)NC(C)C(=O)O (stereo unspecified)	inactive: 0.43%
O=[N+]([O-])c1cc([N+](=O)[O-])c(-n2nnc3ccccc32)c([N+](=O)[O-])c1	inactive: -23.1%
Cc1nc2ccc3ccccc3c2s1.O=[N+]([O-])c1cc([N+](=O)[O-])c(O)c([N+](=O)[O-])c1	inactive: -23.3%
CCOC(=O)C(CC)C1=NC(C)(C)Cc2ccccc21.O=[N+]([O-])c1cc([N+](=O)[O-])c(O)c([N+](=O)[O-])c1 (stereo unspecified)	inactive: -13.9%
O=[N+]([O-])c1cc([N+](=O)[O-])c(Nc2nnnn2CCO)c([N+](=O)[O-])c1	inactive: -34.7%
CP(=O)(Nc1ccc(SC(F)(F)F)cc1)Oc1ccccc1 (stereo unspecified)	inactive: -2.14%
CCCOc1ccc(NP(C)(=O)Oc2ccc(Cl)cc2)cc1 (stereo unspecified)	inactive: -8.54%
CN1CCCCC1COC(=O)C1(O)c2ccccc2CCc2ccccc21 (stereo unspecified)	inactive: -9.45%
COc1ccccc1OP(C)(=O)Nc1c(C)cccc1C (stereo unspecified)	inactive: -11.7%
O=C(O)c1cccc(Nc2c([N+](=O)[O-])cc([N+](=O)[O-])cc2[N+](=O)[O-])c1	inactive: -29.8%
CC1=NCCc2c1[nH]c1ccccc21.O=[N+]([O-])c1cc([N+](=O)[O-])c(O)c([N+](=O)[O-])c1	inactive: -6.35%
CCOC(=O)c1ccc(NP(C)(=O)Oc2cc(C)cc(C)c2)cc1 (stereo unspecified)	inactive: 22.7%
Cc1cc(C)cc(OP(C)(=O)Nc2ccc(C)cc2C)c1 (stereo unspecified)	inactive: -0.74%
COc1ccccc1OP(C)(=O)Nc1cccc(Br)c1 (stereo unspecified)	inactive: -14.9%
Cc1ccc(C)c(NP(C)(=O)Oc2ccccc2)c1 (stereo unspecified)	inactive: -12.3%
CP(=O)(Nc1cccc(Br)c1)Oc1ccccc1 (stereo unspecified)	inactive: -29.5%
Cc1cc(C)cc(OP(C)(=O)Nc2ccccn2)c1 (stereo unspecified)	inactive: -36.5%
CP(=O)(Nc1ccccc1F)Oc1ccccc1 (stereo unspecified)	inactive: 13.5%
CC(C)c1ccc(OP(C)(=O)Nc2ccc(SC(F)(F)F)cc2)cc1 (stereo unspecified)	inactive: -19.1%
O=C(OC1CN2CCC1CC2)c1ccc([N+](=O)[O-])cc1 (stereo unspecified)	inactive: -10.9%
O=C(OCCN1CCN(CCOCc2ccccc2)CC1)C(O)(c1ccccc1)c1ccccc1	inactive: -12.9%

SMILES	inhibition
CCOC(=O)c1ccc(NP(C)(=O)Oc2ccc(F)cc2)cc1 (stereo unspecified)	inactive: 10.9%
COc1ccc(OP(C)(=O)Nc2ccc(SC(F)(F)F)cc2)cc1 (stereo unspecified)	inactive: 4.51%
CP(=O)(Nc1ccccc1)Oc1ccc(F)cc1 (stereo unspecified)	inactive: -6.97%
O=[N+]([O-])c1cc([N+](=O)[O-])c(OC2CCCCC2O)c([N+](=O)[O-])c1 (stereo unspecified)	inactive: -41.7%
CCCCCOc1ccc(NP(C)(=O)Oc2ccc(Cl)cc2Cl)cc1 (stereo unspecified)	inactive: -37.6%
CCN(CC)CCCOC(=O)C(O)(c1ccccc1)C1CCCCC1 (stereo unspecified)	inactive: -15.8%
CN(C)CCOC(=O)C(O)(c1ccccc1)C1CCCCC1 (stereo unspecified)	inactive: -41.8%
COc1ccc(NP(C)(=O)Oc2ccccc2OC)cc1 (stereo unspecified)	inactive: -1.23%
COc1ccc(OP(C)(=O)Nc2cccc(Br)c2)cc1 (stereo unspecified)	inactive: -4.29%
O=[N+]([O-])c1ccc(OP2(=O)COCCO2)cc1 (stereo unspecified)	inactive: -12.3%
Cc1cc(-c2cccc3ccccc23)c(C)cn1.O=[N+]([O-])c1cc([N+](=O)[O-])c(O)c([N+](=O)[O-])c1	inactive: -20.5%
O=[N+]([O-])c1cc([N+](=O)[O-])c(NCC2CCS(=O)(=O)C2)c([N+](=O)[O-])c1 (stereo unspecified)	inactive: -19.7%
CCOP(C)(=S)SCC(=O)NC(C)(CC)C(=O)O (stereo unspecified)	inactive: -40.4%
CP(=O)(Nc1ccc(SC(F)(F)F)cc1)Oc1ccc(F)cc1 (stereo unspecified)	inactive: -8.42%
Cc1ccccc1NP(C)(=O)Nc1ccccc1C	inactive: -10.2%
CP(=O)(Nc1ccc2c(c1)OCCO2)Oc1ccccc1 (stereo unspecified)	inactive: -12.2%
O=C(OCCCN1CCCC1)C(O)(c1ccccc1)C1CCCCC1 (stereo unspecified)	inactive: -22.1%
COc1ccccc1OP(C)(=O)Nc1c(C)n(C)n(-c2ccccc2)c1=O (stereo unspecified)	inactive: -29.4%
CCc1ccc(OP(C)(=O)Nc2cccnc2)cc1 (stereo unspecified)	inactive: -12%
